Source: article PMC9385671 (Nature Communications, 2022)

Sequences of proteins named here, by UniProt entry; tags and fusion partners are left off. Residues count along the entry.
UniProt P0A9A6, 1-366: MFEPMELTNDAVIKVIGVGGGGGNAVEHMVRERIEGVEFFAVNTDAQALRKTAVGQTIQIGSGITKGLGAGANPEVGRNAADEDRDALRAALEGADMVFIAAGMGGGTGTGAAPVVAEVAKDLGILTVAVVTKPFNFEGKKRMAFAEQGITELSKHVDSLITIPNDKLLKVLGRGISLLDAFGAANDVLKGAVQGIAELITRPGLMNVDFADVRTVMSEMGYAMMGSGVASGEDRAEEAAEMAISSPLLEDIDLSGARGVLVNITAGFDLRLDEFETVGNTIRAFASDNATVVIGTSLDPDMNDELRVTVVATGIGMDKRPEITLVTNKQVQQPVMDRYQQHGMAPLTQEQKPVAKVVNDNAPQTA

Biological target: FtsZ-YFP-mts (Escherichia coli, UniProt P0A9A6)
Assay type: biochemical
Design: made in house; host or cells: E. coli BL21(DE3) for the wild type
Conditions: 5 μM protein, 1 mM GTP; average of two repeats
Method: Reactions were performed every 20 s for a total time of 120 s. After 30 min of incubation with BIOMOL® GREEN at room temperature, the absorbance of the samples at 620 nm was monitored by TECAN plate reader. The phosphate release concentrations were calculated based on a phosphate standard curve.

## N[C@@H](Cc1ccc(O)c(I)c1)C(=O)O [IY, 3-iodo-L-tyrosine]
  GTPase activity, Average: 1.7632 pi/min
